Measurements reported in patent EP0461043A2, “Enantiomer separation by transesterification” (SEPRACOR, INC., priority 1990, dated 1991).

Test: Water solubility
Type: physicochemical
Details: esters, values given in mM

potassium salt of sulfoethyl ester of Naproxen
solubility in water: 12.1 mM
